{
  "sequences": {"note": "Protein sequences, listed by entry. Tags and fused reporters are not part of them.", "UniProt P60484, whole entry": "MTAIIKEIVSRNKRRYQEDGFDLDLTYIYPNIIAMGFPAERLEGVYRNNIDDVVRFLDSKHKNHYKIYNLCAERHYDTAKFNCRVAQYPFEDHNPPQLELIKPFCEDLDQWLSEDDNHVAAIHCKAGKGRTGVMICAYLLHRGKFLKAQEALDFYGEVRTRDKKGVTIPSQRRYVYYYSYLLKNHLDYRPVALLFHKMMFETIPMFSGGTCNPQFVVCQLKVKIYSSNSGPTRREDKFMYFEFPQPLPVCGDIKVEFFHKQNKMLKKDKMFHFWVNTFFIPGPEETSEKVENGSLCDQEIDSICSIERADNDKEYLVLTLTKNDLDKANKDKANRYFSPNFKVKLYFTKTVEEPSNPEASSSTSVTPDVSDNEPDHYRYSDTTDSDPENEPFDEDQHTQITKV", "UniProt P18031, whole entry": "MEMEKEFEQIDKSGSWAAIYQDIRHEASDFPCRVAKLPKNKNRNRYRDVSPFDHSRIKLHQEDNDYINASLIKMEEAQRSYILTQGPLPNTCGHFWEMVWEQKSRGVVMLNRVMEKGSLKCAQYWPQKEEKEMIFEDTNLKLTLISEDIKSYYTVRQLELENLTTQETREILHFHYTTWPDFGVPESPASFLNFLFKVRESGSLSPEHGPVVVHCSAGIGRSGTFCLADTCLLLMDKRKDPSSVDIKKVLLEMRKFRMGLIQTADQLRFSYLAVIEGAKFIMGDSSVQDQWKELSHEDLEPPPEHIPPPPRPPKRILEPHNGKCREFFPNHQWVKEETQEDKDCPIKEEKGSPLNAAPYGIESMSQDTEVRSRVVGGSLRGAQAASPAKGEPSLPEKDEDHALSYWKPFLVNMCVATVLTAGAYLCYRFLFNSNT"},
  "source": "patent US20070203098A1",
  "about": "“Pten Inhibitors” (priority 2004, published 2007)",
  "key": {"PTEN [1]": {"biological_target": "T1, PTEN (Homo sapiens, UniProt P60484)", "test": "PTEN Inhibition Assay: IC50 Determinations", "type": "biochemical"}, "PTEN [2]": {"biological_target": "T1, PTEN", "test": "PTEN Inhibition Assay: General Screening", "type": "biochemical"}, "PTP1B": {"biological_target": "PTP1B (Homo sapiens, UniProt P18031)", "test": "PTP1B Inhibition Assay: IC50 Determinations", "type": "biochemical", "conditions": "read-out: PTP1B IC50; Table 29"}, "MEF PTEN null": {"tested_on": "MEF PTEN null", "test": "Migration Assay, MEF PTEN null", "type": "cell-based, mouse", "conditions": "Table 4"}, "[3]": {"tested_on": "HBEC (Human Brain Endothelial Cells)", "test": "Wound Healing Assay", "type": "cell-based"}, "mouse aortic ring": {"tested_on": "mouse aortic ring", "test": "In Vitro Aortic Ring Angiogenesis Assay", "type": "cell-based", "conditions": "5 μM; 5 days"}, "MEF PTEN wt": {"tested_on": "MEF PTEN wt", "test": "Migration Assay, MEF PTEN wt", "type": "cell-based, mouse", "conditions": "Table 4"}, "[4]": {"conditions": "read-out: PTEN Inhibition IC50, Table 1"}},
  "note": "Where two headings read alike, the source gives them in different places. Marks after values point to notes of the source that are not given here.",
  "data": [
    {"smiles": "COc1cccc(OCC(=O)Nc2ccccc2N)c1", "values": [
      {"measurement": "IC50", "setting": "PTEN [1]; read-out: PTEN IC50, Table 29", "result": 220000, "unit": "nM"},
      {"measurement": "% Inhibition @ 250 uM", "setting": "PTEN [2]; Table 20", "result": "57-96%"}
    ]},
    {"smiles": "CCOc1cc(C=NNC(=O)c2nnn(-c3nonc3N)c2COc2ccccc2)ccc1OCC(N)=O", "values": [
      {"measurement": "IC50", "setting": "PTEN [1]; read-out: PTEN IC50, Table 29", "result": 135000, "unit": "nM"},
      {"measurement": "IC50", "setting": "PTP1B", "result": 9500, "unit": "nM"},
      {"measurement": "% Inhibition at 250 uM", "setting": "PTEN [2]; Table 14 triazoles", "result": "53-85%"}
    ]},
    {"smiles": "O=C(CCl)Nc1ccc2c(c1)C(=O)C(=O)N2", "values": [
      {"measurement": "IC50", "setting": "PTP1B", "result": "> 10000", "unit": "nM"},
      {"measurement": "% Inhibition @ 250 uM", "setting": "PTEN [2]; Table 27 isatins", "result": 1.1, "unit": "%"}
    ]},
    {"smiles": "O=C(Nc1ccc2c(c1)C(=O)C(=O)c1ccccc1-2)c1ccc(Br)cc1", "values": [
      {"measurement": "IC50", "setting": "PTP1B", "result": "1000 to 10000", "unit": "nM"},
      {"measurement": "% Inhibition @ 250 uM", "setting": "PTEN [2]; Table 26 phenanthrene diones", "result": 96.94, "unit": "%"}
    ]},
    {"smiles": "O=C(Nc1ccc2c(c1)C(=O)C(=O)c1ccccc1-2)c1ccccc1", "values": [
      {"measurement": "IC50", "setting": "PTEN [1]; read-out: PTEN IC50, Table 29", "result": 292, "unit": "nM"},
      {"measurement": "IC50", "setting": "PTEN [1]; [4]", "result": 292, "unit": "nM"},
      {"measurement": "IC50", "setting": "PTP1B", "result": 558, "unit": "nM"},
      {"measurement": "% Inhibition @ 250 uM", "setting": "PTEN [2]; Table 26 phenanthrene diones", "result": 99.6, "unit": "%"}
    ]},
    {"smiles": "O=C1C(=O)c2cc(NS(=O)(=O)c3ccccc3)ccc2-c2ccccc21", "values": [
      {"measurement": "migration number, Average", "setting": "MEF PTEN null; 125 uM", "result": 36.80},
      {"measurement": "migration number, Average", "setting": "MEF PTEN null; 250 uM", "result": 38.10},
      {"measurement": "distance the cells have grown out", "setting": "[3]; 10 nM, 2 hrs", "result": 0.03667, "unit": "millimeters"},
      {"measurement": "distance the cells have grown out", "setting": "[3]; 10 nM, 4 hrs", "result": 0.05667, "unit": "millimeters"},
      {"measurement": "distance the cells have grown out", "setting": "[3]; 10 nM, 6 hrs", "result": 0.07167, "unit": "millimeters"},
      {"measurement": "distance the cells have grown out", "setting": "[3]; 10 nM, 24 hrs", "result": 0.2133, "unit": "millimeters"},
      {"measurement": "distance the cells have grown out", "setting": "[3]; 50 nM, 2 hrs", "result": 0.03667, "unit": "millimeters"},
      {"measurement": "distance the cells have grown out", "setting": "[3]; 50 nM, 4 hrs", "result": 0.05667, "unit": "millimeters"},
      {"measurement": "distance the cells have grown out", "setting": "[3]; 50 nM, 6 hrs", "result": 0.07667, "unit": "millimeters"},
      {"measurement": "distance the cells have grown out", "setting": "[3]; 50 nM, 24 hrs", "result": 0.2283, "unit": "millimeters"},
      {"measurement": "distance the cells have grown out", "setting": "[3]; 250 nM, 2 hrs", "result": 0.02833, "unit": "millimeters"},
      {"measurement": "distance the cells have grown out", "setting": "[3]; 250 nM, 4 hrs", "result": "0.05333* millimeters"},
      {"measurement": "distance the cells have grown out", "setting": "[3]; 250 nM, 6 hrs", "result": "0.075* millimeters"},
      {"measurement": "distance the cells have grown out", "setting": "[3]; 250 nM, 24 hrs", "result": 0.2217, "unit": "millimeters"},
      {"measurement": "distance the cells have grown out", "setting": "[3]; 1000 nM, 2 hrs", "result": "0.02333* millimeters"},
      {"measurement": "distance the cells have grown out", "setting": "[3]; 1000 nM, 4 hrs", "result": "0.03333* millimeters"},
      {"measurement": "distance the cells have grown out", "setting": "[3]; 1000 nM, 6 hrs", "result": 0.07, "unit": "millimeters"},
      {"measurement": "distance the cells have grown out", "setting": "[3]; 1000 nM, 24 hrs", "result": "0.1817* millimeters"},
      {"measurement": "HBEC migration across the wound, in words", "setting": "[3]; relative to no treatment control", "result": "migrate faster"},
      {"measurement": "IC50", "setting": "PTEN [1]; read-out: PTEN IC50, Table 29", "result": "221 to 297", "unit": "nM"},
      {"measurement": "IC50", "setting": "PTEN [1]; [4]", "result": 297, "unit": "nM"},
      {"measurement": "Branch (% of control)", "setting": "mouse aortic ring", "result": "94-330 % of control"},
      {"measurement": "Stem (% of control)", "setting": "mouse aortic ring", "result": "100-367 % of control"},
      {"measurement": "IC50", "setting": "PTP1B", "result": 205, "unit": "nM"},
      {"measurement": "% Inhibition @ 250 uM", "setting": "PTEN [2]; Table 26 phenanthrene diones", "result": 98.9, "unit": "%"},
      {"measurement": "migration number, Average", "setting": "MEF PTEN wt; 125 uM", "result": 28.50},
      {"measurement": "migration number, Average", "setting": "MEF PTEN wt; 250 uM", "result": 17.50}
    ]}
  ]
}
